Measurements: patent US20020095001A1, “Methods and compositions for topical treatment of damaged tissue using reactive oxygen metabolite production or release inhibitors” (priority 1999, published 2002)

Key:
herpes genitalis = conditions: 0.07% by weight foam (vaginal) and cream (external), three times a day for five days
Method: Using an applicator, the foam is injected into the vaginal space to treat herpetic lesions therein. The cream is applied topically to external lesions. The cream and foam are applied three times a day for a period of five days.

herpes labialis = conditions: 0.07% by weight lipstick, three times a day for five days
Source text: The treatment consists of topical application three times a day for a period of five days.

Substance: histamine diphosphate
- untoward reactions (herpes genitalis): no untoward reactions
- untoward reactions (herpes labialis): no untoward reactions
